Patent publication US20250049819A1, “METHODS FOR TREATING AND PREVENTING C. DIFFICILE INFECTION” (Paratek Pharmaceuticals, Inc., priority 2016, published 2025)

How the values were obtained:
[1] = test system: C. difficile strain ATCC 43596; assay: Hamster model of C. difficile-associated diarrhea, survival; conditions: in vivo
[2] = test system: C. difficile and gut microbiota; conditions: published gut model studies, cited from earlier work

## CCC[C@@H]1C[C@@H](C(=O)N[C@@H]([C@H]2O[C@H](SC)[C@H](O)[C@@H](O)[C@H]2O)[C@H](C)Cl)N(C)C1 [Clindamycin]
[1]
  Median Survival: 4 days
  percent survival at day 2 post infection: 10%
[2]
  induction of simulated CDI (C. difficile germination and toxin production) in the gut model: causes marked toxin production
[2]; listed as clindamycin
  induction of simulated CDI (C. difficile germination and toxin production) in the gut model: have induced CDI in this model

Like-named read-outs stand apart in the source and are kept apart here.
